From US9102622B2 (University of Connecticut, priority 2006, dated 2015)

Chains of the proteins cited; added tags and fusions are not shown.
UniProt P97612, whole entry: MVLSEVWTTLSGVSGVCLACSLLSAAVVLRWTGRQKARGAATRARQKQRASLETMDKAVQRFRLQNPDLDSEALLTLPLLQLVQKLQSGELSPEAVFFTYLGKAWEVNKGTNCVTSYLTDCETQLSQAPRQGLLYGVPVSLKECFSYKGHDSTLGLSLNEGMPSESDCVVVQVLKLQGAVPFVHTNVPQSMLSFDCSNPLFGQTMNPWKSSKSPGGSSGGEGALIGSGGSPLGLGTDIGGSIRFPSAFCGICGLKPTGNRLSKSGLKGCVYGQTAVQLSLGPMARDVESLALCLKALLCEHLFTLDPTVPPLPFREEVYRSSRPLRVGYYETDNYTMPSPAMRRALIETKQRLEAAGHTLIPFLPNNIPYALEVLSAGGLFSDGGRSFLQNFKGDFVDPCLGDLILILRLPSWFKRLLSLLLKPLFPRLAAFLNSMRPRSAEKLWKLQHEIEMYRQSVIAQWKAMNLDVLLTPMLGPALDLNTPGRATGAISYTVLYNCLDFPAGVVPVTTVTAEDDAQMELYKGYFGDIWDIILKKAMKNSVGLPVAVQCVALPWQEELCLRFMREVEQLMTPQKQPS

Biological target: fatty acid amide hydrolase (FAAH) (Rattus norvegicus (Rat), UniProt P97612)
Experiment: FAAH enzyme assay: inhibition of anandamide (AEA) hydrolysis, arachidonic acid quantified by HPLC
Assay type: biochemical
Conditions: eight-point assay
Procedure: The resulting supernatant is injected onto the HPLC.

## O=S(=O)(F)CCCCCCCc1ccc(OCc2ccccc2)cc1 [Compound 13.1, 7-(4-Benzyloxy-phenyl)-heptanesulfonyl fluoride]
Anandamide hydrolysis by FAAH
  IC50: 168 nM
Calculated with Prizm software
  Ki: 39 nM
